Results published in paper doi:10.1101/2022.04.21.489129.

Biological target: wild-type HIV-1AD8 envelope glycoprotein (Env) trimer on virions (HIV-1 (strain AD8) | HIV-1 (strain NL4-3))
Test: co-IP

soluble CD4-Ig (from UniProt P01730 26-396) (Fc fusion)
EC50: 25 nM
